The list shows a part of the results, in another mix than the full data. The source made the active and inactive calls. No stated cut-off is given here; in the data, active means inhibition above about 40%; inconclusive means no clear call, values can overlap the other calls; inactive means below that.
Each compound was assayed against Apoptosis regulator Bcl-2 (Homo sapiens) (UniProt P10415) (assay: inhibitors of Bim-Bcl-2 binding, primary screen, biochemical, multiplexed, human Bcl-2 family (AID 950;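 further: 0% = no compound wells with probe peptide and 100% = reference peptide inhibitor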)). Conditions: Bead-based flow cytometry, Bim peptide-Bcl-2 binding; at 10 µM; hits give high values.

Amino acid sequences for entries named in this document (tags omitted).
UniProt P10415, whole entry, looked up: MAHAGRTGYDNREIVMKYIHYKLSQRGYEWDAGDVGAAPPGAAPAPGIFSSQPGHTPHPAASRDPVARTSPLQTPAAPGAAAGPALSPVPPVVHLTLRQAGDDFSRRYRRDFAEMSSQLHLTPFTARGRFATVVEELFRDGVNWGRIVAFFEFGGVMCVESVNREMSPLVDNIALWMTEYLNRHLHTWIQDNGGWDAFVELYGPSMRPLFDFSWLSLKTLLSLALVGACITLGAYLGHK

| SMILES | inhibition |
| --- | --- |
| Cc1cc(SC(NC=O)C(Cl)(Cl)Cl)ncn1 (centres undefined) | inactive: -6% |
| O=P(Nc1ccccn1)(c1cccc2ccccc12)c1cccc2ccccc12 | inactive: -6% |
| Cc1cc(SC(NC(=O)c2ccccc2)C(Cl)(Cl)Cl)nc(C(C)C)n1 (centres undefined) | inactive: -3% |
| CCC(C)N(CC(C)C)C(=S)SC(NC(C)=O)C(Cl)(Cl)Cl (centres undefined) | inactive: 5% |
| COP1(=S)c2c(C)nn(CCC#N)c2N=C(c2ccc(F)cc2)N1C (centres undefined) | inactive: -9% |
| O=C(COc1ccccc1)OC1CN2CCC1CC2 (centres undefined) | inactive: 1% |
| COc1ccc(N/C(=N/P(=O)(N2CCOCC2)N2CCOCC2)N2CCOCC2)cc1 | inactive: 1% |
| Cc1c2c(nc3ccccc13)SC(C(Cl)Cl)C2 (centres undefined) | inactive: -4% |
| O=C(OC1CN2CCC1CC2)C12CC3CC(CC(C3)C1)C2 (centres undefined) | inactive: -9% |
| Cc1cc(=O)[nH]c(N[N+](=O)[O-])n1 | inactive: -2% |
| COc1ccc2nc(NP(=O)(c3ccccc3)c3ccccc3)sc2c1 | inactive: -2% |
| ClCCSc1nnc(-c2cccnc2)o1 | inactive: -5% |
| CC(C)NC(=O)NP(=O)(Oc1ccccc1)Oc1ccccc1 | inactive: -4% |
| CCN(CC)C(=S)SC(NC=O)C(Cl)(Cl)Cl (centres undefined) | inactive: -2% |
| O=[N+]([O-])c1cc([N+](=O)[O-])c(-c2ccn[nH]2)s1 | inactive: 0% |
| Cc1ccc2nc3c(c(C)c2c1)CC(C(Cl)Cl)S3 (centres undefined) | inactive: -6% |
| CCOP1(=S)c2c(C)nn(CCC#N)c2N=C(c2ccc(F)cc2)N1C (centres undefined) | inactive: -9% |
| O=[N+]([O-])c1ccc2c(c1)nnn2O | inactive: -2% |
| CCOP1(=S)c2c(C)nn(CCC#N)c2N=C(c2ccccc2F)N1C (centres undefined) | inactive: -9% |
| O=P(Nc1nccs1)(Oc1ccccc1)Oc1ccccc1 | inactive: 1% |
| O=P(Nc1nccs1)(c1ccccc1)c1nc2ccccc2s1 (centres undefined) | inactive: -11% |
| Cc1ccc(NCCc2c([N+](=O)[O-])cc([N+](=O)[O-])cc2[N+](=O)[O-])cc1 | inactive: 2% |
| COc1cc(C2NCCC3(OCCO3)C2(C)C)cc(OC)c1OC (centres undefined) | inactive: 1% |
| CCOP(=O)(Nc1cccc2ccccc12)OCC | inactive: -4% |
| COc1cc(C(=O)NCC2(N3CCOCC3)CCCCC2)cc(Cl)c1OC(C)C | inactive: -3% |
| Cc1cccc(OCC(=O)OC2CN3CCC2CC3)c1 (centres undefined) | inactive: 0% |
| CN(C(=O)Cc1ccc(Cl)c(Cl)c1)[C@@H]1CCCC[C@H]1N1CCCC1 | inactive: -2% |

| SMILES | inhibition |
| --- | --- |
| CC(C)/C=N\N=C(\N)N[N+](=O)[O-] | inactive: -2% |
| O=P1(Nc2ccccn2)COc2ccccc2OC1 | inactive: -8% |
| Clc1n[nH]nc1-c1nn[nH][15n]1 | inactive: -8% |
| O=P1(Nc2ncccn2)COc2ccccc2OC1 | inactive: -7% |
| Cc1ccc(OCC(=O)OC2CN3CCC2CC3)cc1 (centres undefined) | inactive: -6% |
| O=P1(Nc2ccc(Br)cn2)COc2ccccc2OC1 | inactive: -4% |
| Cc1nn(-c2ccccc2)c2c1P(=O)(N1CCOCC1)N(C)C(c1ccccc1)=N2 (centres undefined) | inactive: 0% |
| CC1CCC(C(C)C)C(OP(=O)(Nc2ccccn2)c2ccccc2)C1 (centres undefined) | inactive: 1% |
| CN(C)C1(CNC(=O)c2ccc(S(C)(=O)=O)cc2)CCCCC1 | inactive: 0% |
| CC(=O)NC(SC(=S)N(C)C)C(Cl)(Cl)Cl (centres undefined) | inactive: -1% |
| O=C(OC1CN2CCC1CC2)c1cccc(Cl)c1 (centres undefined) | inactive: 2% |
| C(Cc1nn[nH]n1)Cc1nn[nH]n1 | inactive: -1% |
| O=P(Nc1ccccn1)(c1ccc(Br)cc1)c1ccc(Br)cc1 | inactive: -4% |
| O=P(Nc1nccs1)(c1ccccc1)c1ccccc1 | inactive: -6% |
| CC(C)C(=O)NC(Sc1ccccc1)C(Cl)(Cl)Cl (centres undefined) | inactive: -8% |
| c1nnnn1CCn1cnnn1 | inactive: -5% |
| CC(=O)Nc1ccc(Oc2c([N+](=O)[O-])cc([N+](=O)[O-])cc2[N+](=O)[O-])cc1 | inactive: -1% |
| O=P1(Nc2nc3ccc(Cl)cc3s2)COc2ccccc2O1 (centres undefined) | inactive: -3% |
| CCOc1ccc(C2=NCC(CBr)S2)cc1 (centres undefined) | inactive: -1% |
| CC(C)(C)C(=O)NC(Sc1ccccc1)C(Cl)(Cl)Cl (centres undefined) | inactive: 0% |
| CCC(=O)N1C2C3N(C(=O)CC)C1C1N(C(=O)CC)C(C(N1C(=O)CC)N3C(=O)CC)N2C(=O)CC | inactive: 7% |
| COC(=O)c1cc2c(s1)N=C(c1ccccc1)N(C)P2(=O)N1CCOCC1 (centres undefined) | inactive: -6% |
| CC(=O)NC(SC(=S)N(CC(C)C)CC(C)C)C(Cl)(Cl)Cl (centres undefined) | inactive: 1% |
| Cc1ccc(OP(=O)(Nc2ccccn2)Oc2ccc(C)cc2)cc1 | inactive: 0% |
| O=c1c2cc([N+](=O)[O-])ccc2[nH]c2c([N+](=O)[O-])cc([N+](=O)[O-])cc12 | inactive: -2% |
| c1ccc(-c2nn[nH]n2)c(-c2nn[nH]n2)c1 | inactive: -1% |
| CCOC(=O)NC(Sc1ccccc1)C(Cl)(Cl)Cl (centres undefined) | inactive: -2% |

| SMILES | inhibition |
| --- | --- |
| O=C(NC1CCS(=O)(=O)C1)NP(=S)(Oc1ccccc1)Oc1ccccc1 (centres undefined) | inactive: -10% |
| CCNC(=S)/N=C(\N)N[N+](=O)[O-] | inactive: -1% |
| CCN(N=Nc1nonc1N)c1nonc1N | inactive: -9% |
| Cc1cc(SC(NC(=O)c2ccc(F)cc2)C(Cl)(Cl)Cl)ncn1 (centres undefined) | inactive: -11% |
| CCOP(=O)(Nc1ccccc1)OCC | inactive: -1% |
| Oc1ccccc1CNc1ccccn1 | inactive: -11% |
| O=C(NC(Sc1ccncn1)C(Cl)(Cl)Cl)c1ccccc1 (centres undefined) | inactive: 0% |
| Cc1c2non([O-])c-2c(C)[n+](=O)[n+]1[O-] | inactive: -3% |
| CC(C)CC(=O)NC(Sc1ccc(Cl)cc1)C(Cl)(Cl)Cl (centres undefined) | inactive: 0% |
| Cc1ccc(N/C(=N/P(=O)(N2CCOCC2)N2CCOCC2)N2CCOCC2)cc1 | inactive: 0% |
| NC(=O)c1cc([N+](=O)[O-])cc([N+](=O)[O-])c1N | inactive: -2% |
| CN1CCCC(OC(=O)C(c2ccccc2)c2ccccc2)C1 (centres undefined) | inactive: 17% |
| Clc1ccc(Cl)c(NC2=NCC(CBr)S2)c1 (centres undefined) | inactive: -3% |
| COc1ccccc1OP(=O)(Nc1ccc(C)cn1)Oc1ccccc1OC | inactive: 2% |
| CCN(/C(=N/P(=O)(N1CCOCC1)N1CCOCC1)N1CCOCC1)c1ccc(OC)cc1 | inactive: 0% |
| CC1CCN(C(=O)Oc2c(Cl)cc(Cl)c3cccnc23)CC1 | inactive: -3% |
| CC(C)=N/N=C(\N)N[N+](=O)[O-] | inactive: -6% |
| CN(C)C(=O)OCCc1n(C)cc[n+]1C | inactive: -8% |
| COc1ccc(C2=NCC(CBr)S2)cc1 (centres undefined) | inactive: -4% |
| Cc1ccc(NP(=O)(Oc2ccccc2)Oc2ccccc2)nc1 | inactive: -3% |
| O=[N+]([O-])c1cc([N+](=O)[O-])c(CCNc2ccccc2)c([N+](=O)[O-])c1 | inactive: 0% |
| CCc1nc2c(n1)c1c(non1O)c1c2no[n+]1[O-] | inactive: 20% |
| CC(=O)N1C2C3N(C(C)=O)C1C1N(C(C)=O)C(C(N1C(C)=O)N3C(C)=O)N2C(C)=O | inactive: -3% |
| O=[N+]([O-])c1cccc2n[nH]nc12 | inactive: -10% |
| O=[N+]([O-])c1ncn(CCn2ncnc2[N+](=O)[O-])n1 | inactive: -2% |

— PubChem BioAssay AID950 (NMMLSC, 2007)
